# GLP1R inv ag: inverse agonists of human GLP-1 receptor; P43220; 410,000 tested, 1.6% active; HEK293 GLP-1R CRE-luciferase, luminescence, 24 h; GLP-1R form is constitutively active; Potency, µM (doses to about 38.3 µM), inactives show at the top dose activity change, negative = inhibition, most hits filed as inhibitors; AID 624417; further: potency means the concentration at half of the fitted maximal effect; on the % scale 0 is the no-effect control and ±100 the full control effect; nearly all actives have a fitted effect of over 55% in size
#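 Luminescence readout: a drop in cAMP-driven luciferase signal flags inverse agonism at a constitutively active GLP-1R stably expressed in HEK293. Compound exposure lasted 24 hr at 37 deg C, 5% CO2.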
# Pin1 inh: human Pin1 inhibition | Pin1 FP peptide displacement, HiFluor488, 10 min | Potency, µM (series often up to 115 µM), for the others: at the top dose activity, negative = inhibition, hits mostly inhibitors | 390,000 tested, 0.009% active; active means well fitted inhibition curve with a large enough effect in the polarisation, with a control signal flat, not every such curve was filed as active; inconclusive means small, poorly fitted or top-dose-only effect, or effect the other way, or a change in a side signal; inactive means no such curve, though single readings can be large or run the other way; the % refers to the polarisation; further: potency means the concentration at half of the fitted maximal effect; on the % scale 0 is the no-effect control and ±100 the full control effect
# miR-21 reporter: miR-21 reporter, rising signal | AID 2288 | HeLa miR-21 FLuc reporter, luciferase, 48 h | 340,000 tested, under 10 active | Potency, µM (titrated, usually from 38.3 µM), for the others: at the top dose reporter change, positive = more light; active = well fitted rising curve with a large enough effect; inconclusive = small, poorly fitted or top-dose-only effect; inactive = no such curve, though single readings can be large or run the other way;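 also: % of control where 0% means no effect; miR-21 action dims this reporter so a rising signal means less miR-21 action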
#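 Compounds were titrated across several concentrations (up to approximately 40 uM) and incubated 48 hours with HeLa miR-21-FLuc reporter cells (miR-21 target sequence downstream of FLuc, endogenous miR-21). Readout was firefly luciferase luminescence after lytic detection reagent.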
# GLP-1R agonist: activates the human GLP-1 receptor. Potency, µM (top dose mostly 45.6 µM), for the others: at the top dose activation, usual class: activators. 380,000 tested, 0.007% active. HEK293 GLP-1R CRE-luciferase, luminescence, 4-6 h; cells express a hypersensitive GLP-1R form. P43220; further: potency means the concentration at half of the fitted maximal effect; % of control where 0% means no effect
# PTHR1 ag: activates the human parathyroid hormone receptor PTHR1 | HEK293 GP2 PTHR1 cells, GloSensor cAMP luminescence, 1 h | Potency, µM (top dose mostly 115 µM), inactives show at the top dose activation, actives largely listed as activators | 410,000 tested, 0.075% active | AID 743266; further: potency means the concentration at half of the fitted maximal effect; nearly all actives have a fitted effect of over 55% in size
#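 HEK-293-derived GP2 cells expressing PTHR1 and a GloSensor cAMP reporter, 3,000/well, plated overnight, given luciferin plus IBMX (each 0.5 mM as added) for 1 h at 37 °C, then compound for 1 h at 37 °C. Luminescence was read after 15 min at room temperature.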
# HEK293 tox: cytotoxicity counter-screen for GLP-1 receptor inverse agonists; HEK293 cAMP-luciferase reporter cells, luminescence, 24 h; Potency, µM (doses to about 38.3 µM), inactives show top-dose activity change, negative = inhibition, hits mostly inhibitors; 410,000 tested, 0.13% active;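 further: loss of luciferase light is scored as toxicity; potency means the concentration at half of the fitted maximal effect; on the % scale 0 is the no-effect control and ±100 the full control effect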
#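 To flag toxic compounds, the library was rerun on cells for 24 hr at 37 deg C and 5% CO2. Viability-linked luminescence was captured 12 min after adding luciferase detection reagent.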
# * = called active by the depositor; i = inactive; ? = inconclusive; nt = no result; [ ] = another dose, or the depositor's remark. The list is not random: actives were taken first. Their share in the collection is about 1.7%. Unless noted, the call rests on the fitted dose curve; in most records, active means well fitted curve in the direction sought with a large enough effect; inconclusive means small, poorly fitted or top-dose-only effect, or another doubt; inactive means no such curve, though single readings can be large; an effect the other way counts as inactive or inconclusive.
SMILES	GLP1R inv ag	HEK293 tox	miR-21 reporter	Pin1 inh	PTHR1 ag	GLP-1R agonist
O=C(c1ccc2c3c(cccc13)CC2)C1CCCN(Cc2cccnc2)C1 (stereo not given)	?	7%	2%	-9%	-8%	21%
COc1ccc(C(=O)C2CCCN(Cc3ccc4nonc4c3)C2)c(OC)c1 (stereo not given)	10µM*	1%	1%	0%	-12%	5%
COc1cc(CN2CCCC(C(=O)c3ccc4c5c(cccc35)CC4)C2)cc(OC)c1O (stereo not given)	11µM*	-16%	-1%	5%	-46%	4%
CCOc1ccccc1N(C)C(=O)Cn1cnc2onc(-c3ccc(F)cc3)c2c1=O	8%	1%	-4%	0%	-25%	-4%
O=S(=O)(c1ccc2c(c1)OCCO2)C1CCN(S(=O)(=O)c2c(F)cccc2F)CC1	nt	nt	nt	0%	nt	nt
Cc1cc(C)c(-c2csc(NC(=O)/C=C/c3cccs3)n2)c(C)c1	3.2µM*	17%	?	14%	-13%	-19%
O=C(/C=C/c1cccs1)Nc1nccs1	3%	0%	-49%	5%	-21%	1%
O=C(/C=C/c1cccs1)Nc1cccc(NC(=O)/C=C/c2cccs2)n1	4µM*	?	25%	?	-23%	-17%
COc1cc2c(c(OC)c1OC)-c1c(cc3c(c1OC)OCO3)CC(C)C(C)(O)C2 (stereo not given)	nt	nt	nt	nt	nt	-3%
COc1cc(NS(=O)(=O)c2ccc(OC)c(C)c2C)c(OC)cc1Cl	4µM*	-22%	20%	0%	-2%[57.5 µM]	2%
Cc1ccc2nc(N(Cc3cccnc3)C(=O)c3ccco3)sc2c1	7%	-10%	-59%	1%	-37%	nt
Cc1ccc(Cn2ncc3c(N4CCOCC4)ncnc32)cc1	106%	-8%	-5%	7%	-34%	7%
Cc1ccc(Cn2ncc3c(N4CCN(c5ccccc5C)CC4)ncnc32)cc1	3.5µM*	0%	9%	7%	-79%[57.5 µM]	-7%
O=c1[nH]cc(CCc2ccccc2)c2ncncc12	nt	nt	nt	-7%	nt	nt
Cc1nc2c(-c3ccc(F)cc3)cnn2c(N)c1-c1ccccc1	0.89µM*	3%	12%	-8%	-27%	-5%
CC(C)(C)Nc1nc(C#N)nc(Nc2ccccc2)n1	nt	nt	nt	2%	nt	nt
Cn1cc(P(=O)(c2ccccc2)c2ccccc2)c2ccccc21	nt	nt	nt	-1%	nt	nt
CCC(=O)N(CCC(c1ccccc1)c1ccc2c(c1)OCO2)Cc1ccc(OC(C)C)cc1 (stereo not given)	13µM*	-12%	15%	8%	i	-4%
COc1ccc(OCC(O)Cn2cnc(-c3ccc(Br)cc3)c2)cc1 (stereo not given)	?	11%	-7%	7%	i	1%
OC(COc1ccc2ccccc2c1Br)Cn1cnc(-c2ccccc2)c1 (stereo not given)	10µM*	-23%	-9%	10%	-1%[57.5 µM]	5%

# 4 compounds already listed, sorted by molecular weight, largest number first:
SMILES	GLP1R inv ag	HEK293 tox	miR-21 reporter	Pin1 inh	PTHR1 ag	GLP-1R agonist
CCC(=O)N(CCC(c1ccccc1)c1ccc2c(c1)OCO2)Cc1ccc(OC(C)C)cc1 (stereo not given)	13µM*	-12%	15%	8%	i	-4%
OC(COc1ccc2ccccc2c1Br)Cn1cnc(-c2ccccc2)c1 (stereo not given)	10µM*	-23%	-9%	10%	-1%[57.5 µM]	5%
COc1ccc(OCC(O)Cn2cnc(-c3ccc(Br)cc3)c2)cc1 (stereo not given)	?	11%	-7%	7%	i	1%
CC(C)(C)Nc1nc(C#N)nc(Nc2ccccc2)n1	nt	nt	nt	2%	nt	nt

# (list continues)
SMILES	GLP1R inv ag	HEK293 tox	miR-21 reporter	Pin1 inh	PTHR1 ag	GLP-1R agonist
Cc1ccccc1CN1CCN(S(=O)(=O)c2ccc(Cl)s2)CC1	10µM*	-10%	-9%	14%	-63%	1%
O=C(Nc1ccc(Br)cc1)c1cccc(C(=O)Nc2ccc(Br)cc2)c1	-12%	-1%	-22%	-1%	i	nt
COc1cccc(CNC(=O)COC(=O)c2ccc(S(C)(=O)=O)c([N+](=O)[O-])c2)c1	nt	nt	nt	2%	nt	nt
CCSc1ncc(Cl)c(C(=O)N(Cc2ccccc2)c2ccc(OC)cc2)n1	5.6µM*	-13%	?	2%	-53%	nt
CCN(CC)c1nc(-c2ccccn2)nc(-c2ccccc2)c1C#N	13µM*	?	?	-8%	-20%	17%
CN(C)c1nc(-c2ccccn2)nnc1-c1ccccc1	6%	?	18%	4%	i	-7%
CCCN(CCC)c1nc(-c2ccccn2)nc2ccccc12	3.5µM*	?	?	-9%	-18%	18%
Cc1ccc(C(=O)NCC(=O)OCC(=O)c2ccc3ccccc3c2)cc1	nt	nt	nt	4%	nt	nt
COc1ccc(CNC(=O)C(CCSC)NS(=O)(=O)c2ccc3c(c2)oc(=O)n3C)cc1 (stereo not given)	9%	2%	-1%	-1%	i	nt
Cc1cc(OCC(=O)Nc2ccccc2N2CCCC2)ccc1C(C)C	11µM*	18%	nt	-2%	i	25%

# Some of the entries above, reformatted:
> Cc1ccccc1CN1CCN(S(=O)(=O)c2ccc(Cl)s2)CC1
- GLP1R inv ag = 10µM*
- HEK293 tox = -10%
- miR-21 reporter = -9%
- Pin1 inh = 14%
- PTHR1 ag = -63%
- GLP-1R agonist = 1%
> O=C(Nc1ccc(Br)cc1)c1cccc(C(=O)Nc2ccc(Br)cc2)c1
- GLP1R inv ag = -12%
- HEK293 tox = -1%
- miR-21 reporter = -22%
- Pin1 inh = -1%
- PTHR1 ag = i
- GLP-1R agonist = nt

# (next part)
SMILES	GLP1R inv ag	HEK293 tox	miR-21 reporter	Pin1 inh	PTHR1 ag	GLP-1R agonist
CC(C)(C)NCC(O)CON=C1c2ccccc2-c2ccccc21 (stereo not given)	4µM*	?	22%	-4%	i	2%
CC(C)(C)NC(=O)CON=C1c2ccccc2-c2ccccc21	?	-2%	-8%	-6%	-12%	12%
CCOc1ccc(NC(=O)CSc2nnc3c(n2)[nH]c2ccc(S(=O)(=O)N(C)C)cc23)cc1	nt	nt	nt	2%	nt	nt
Cn1nc(-c2ccccc2)cc1NC(=O)c1ccccc1	?	-19%	-17%	0%	-26%	1%
O=C(Nc1cc(-c2ccccc2)nn1C1CCCCC1)c1ccc(Cl)cc1	10µM*	-18%	nt	0%	-83%	-2%
COc1ccc(CNCCC(c2ccc3c(c2)OCO3)c2ccccc2OC)cc1 (stereo not given)	?	?	14%	-5%	-43%	nt
CCOC(=S)SCC(=O)Nc1nc(-c2ccc(Br)cc2)cs1	0%	5µM*	14%	14%	-29%	-4%
Oc1ccc(N2CCN(C(c3ccc(Cl)cc3)c3nnnn3Cc3ccc(F)cc3)CC2)cc1 (stereo not given)	nt	nt	nt	5%	nt	nt
CCN(CC)CCCNC(=O)c1ccc(S(=O)(=O)Nc2ccc(C)c(C)c2)cc1	7.9µM*	14%	nt	2%	i	8%
CCCCNC(=O)c1ccc(NS(=O)(=O)c2ccccc2)cc1	0%	5%	-18%	8%	i	2%
Cc1ccc2cc3c(NS(=O)(=O)c4cccc5nonc45)nn(CC(C)C)c3nc2c1	10µM*	-24%	-5%	-6%	-15%	-3%
CCCn1nc(NS(=O)(=O)c2cccc3nonc23)c2cc3cc(C)ccc3nc21	12%	-3%	-12%	-7%	-11%	13%
CC(C)CNC(=O)c1ccccc1NC(=O)CCSc1ccccc1	7.1µM*	-9%	-6%	2%	i	25%
CCCCNc1c(-c2ccc(SC3CCCCC3)c(OC)c2)nc2ccc(C)cn12	8.9µM*	0%	nt	7%	-51%	-3%
CCC(C)Sc1ccc(-c2nc3ccc(C)cn3c2NCc2ccccc2)cc1OC (stereo not given)	2.8µM*	-25%	nt	0%	i	-4%
O=C(NCCc1ccccc1)c1coc(=O)c(Br)c1	?	5µM*	15%	4%	-82%	-2%

# Source: PubChem (National Center for Advancing Translational Sciences (NCATS))
